Sequences of proteins named here, by UniProt entry; tags and fusion partners are left off. Residues count along the entry.
UniProt O00763, 27-2458: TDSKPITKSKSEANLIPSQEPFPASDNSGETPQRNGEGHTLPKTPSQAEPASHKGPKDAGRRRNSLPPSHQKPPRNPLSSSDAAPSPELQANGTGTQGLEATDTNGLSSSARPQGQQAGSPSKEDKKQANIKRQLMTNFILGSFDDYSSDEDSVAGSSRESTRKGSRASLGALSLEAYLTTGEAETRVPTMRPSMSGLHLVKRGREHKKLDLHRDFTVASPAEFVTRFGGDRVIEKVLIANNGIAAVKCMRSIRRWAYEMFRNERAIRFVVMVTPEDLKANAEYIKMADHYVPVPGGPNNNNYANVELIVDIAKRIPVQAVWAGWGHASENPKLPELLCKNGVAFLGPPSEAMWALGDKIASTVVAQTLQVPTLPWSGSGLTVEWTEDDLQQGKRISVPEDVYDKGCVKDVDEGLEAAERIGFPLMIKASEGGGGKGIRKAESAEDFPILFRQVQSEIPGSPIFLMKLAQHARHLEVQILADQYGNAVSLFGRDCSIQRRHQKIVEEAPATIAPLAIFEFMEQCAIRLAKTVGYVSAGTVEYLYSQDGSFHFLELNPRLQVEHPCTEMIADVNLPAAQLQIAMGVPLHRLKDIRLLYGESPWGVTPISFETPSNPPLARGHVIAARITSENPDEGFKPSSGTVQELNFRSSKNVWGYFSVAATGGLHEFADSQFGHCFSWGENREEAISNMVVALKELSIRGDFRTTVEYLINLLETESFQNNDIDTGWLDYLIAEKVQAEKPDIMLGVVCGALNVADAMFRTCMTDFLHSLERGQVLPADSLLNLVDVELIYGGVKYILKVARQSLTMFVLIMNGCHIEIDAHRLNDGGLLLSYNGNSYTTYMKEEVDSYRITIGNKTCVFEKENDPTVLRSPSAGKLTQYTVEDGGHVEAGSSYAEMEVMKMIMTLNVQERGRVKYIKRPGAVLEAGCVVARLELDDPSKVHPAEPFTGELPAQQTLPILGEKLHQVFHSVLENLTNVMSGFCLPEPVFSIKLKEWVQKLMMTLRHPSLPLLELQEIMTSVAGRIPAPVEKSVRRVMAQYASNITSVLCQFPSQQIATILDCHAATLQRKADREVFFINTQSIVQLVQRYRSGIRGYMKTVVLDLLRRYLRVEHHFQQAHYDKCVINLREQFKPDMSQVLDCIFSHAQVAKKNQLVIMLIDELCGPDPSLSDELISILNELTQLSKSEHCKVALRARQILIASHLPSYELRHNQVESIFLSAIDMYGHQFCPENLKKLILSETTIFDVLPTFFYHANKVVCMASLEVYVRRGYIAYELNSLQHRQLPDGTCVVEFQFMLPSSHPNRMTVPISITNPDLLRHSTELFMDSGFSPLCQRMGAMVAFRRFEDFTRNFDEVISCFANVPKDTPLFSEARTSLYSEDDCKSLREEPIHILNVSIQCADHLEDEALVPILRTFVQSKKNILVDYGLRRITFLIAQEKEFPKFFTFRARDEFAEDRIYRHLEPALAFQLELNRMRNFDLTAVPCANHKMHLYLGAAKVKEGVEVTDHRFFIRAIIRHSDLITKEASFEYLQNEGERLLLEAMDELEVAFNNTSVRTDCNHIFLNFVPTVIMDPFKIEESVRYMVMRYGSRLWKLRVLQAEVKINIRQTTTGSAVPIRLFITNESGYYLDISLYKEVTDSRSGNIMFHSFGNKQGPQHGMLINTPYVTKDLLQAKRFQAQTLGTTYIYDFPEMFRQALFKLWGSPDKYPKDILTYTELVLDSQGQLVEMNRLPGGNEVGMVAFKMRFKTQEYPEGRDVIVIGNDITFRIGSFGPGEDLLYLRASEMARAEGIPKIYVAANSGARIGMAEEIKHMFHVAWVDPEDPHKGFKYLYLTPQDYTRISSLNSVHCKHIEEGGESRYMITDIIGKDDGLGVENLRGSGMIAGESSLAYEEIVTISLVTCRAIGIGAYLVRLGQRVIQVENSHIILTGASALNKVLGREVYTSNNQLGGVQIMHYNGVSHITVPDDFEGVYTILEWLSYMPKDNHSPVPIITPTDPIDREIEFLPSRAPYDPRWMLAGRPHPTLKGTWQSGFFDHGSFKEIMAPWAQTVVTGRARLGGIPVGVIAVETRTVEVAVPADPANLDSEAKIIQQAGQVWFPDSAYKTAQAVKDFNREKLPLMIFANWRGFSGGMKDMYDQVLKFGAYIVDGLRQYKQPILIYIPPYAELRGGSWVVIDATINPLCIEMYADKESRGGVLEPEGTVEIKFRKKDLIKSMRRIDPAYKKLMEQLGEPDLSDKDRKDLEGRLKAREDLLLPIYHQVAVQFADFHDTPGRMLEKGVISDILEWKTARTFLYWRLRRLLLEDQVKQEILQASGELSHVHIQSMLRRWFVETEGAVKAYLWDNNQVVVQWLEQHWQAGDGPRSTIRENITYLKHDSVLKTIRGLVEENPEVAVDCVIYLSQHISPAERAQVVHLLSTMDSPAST

According to US20250041279A1, “THERAPEUTIC MEDICINE FOR HEART DISEASE OR SKELETAL MUSCLE DISEASE” (SHIONOGI & CO., LTD., priority 2021, published 2025):

Target: recombinant human ACC2 (Homo sapiens (Human), UniProt O00763)
Test: Measurement of inhibitory activity of human ACC2 (MALDI-TOF MS)
Assay type: biochemical
Conditions: read-out: IC50 hACC2
Source text: A cDNA encoding human ACC2 protein (27 amino acid residues to 2458 amino acid residues from the N-terminus) was cloned from a human kidney cDNA library (Clontech Laboratories, Inc.), a His-tag sequence was introduced at the 5′ end, and then inserted into pFastBac1 (Invitrogen). A recombinant baculovirus was produced in accordance with the protocol for a Bac-to-Bac baculovirus expression system (Invitrogen), and Sf-9 cells were infected therewith to express human ACC2 protein. The recovered cells were crushed, filtered through a filter, and then subjected to Ni affinity chromatography and anion exchange chromatography. Fractions containing human ACC2 protein were collected to obtain recombinant human ACC2.
The recombinant human ACC1 and the recombinant human ACC2 obtained from the above Preparation Examples were preincubated in an assay buffer (50 mM HEPES-KOH (pH 7.4), 10 mM magnesium chloride, 6 to 10 mM potassium citrate, 4 mM glutathione reduced form, and 1.5 mg/ml bovine serum albumin) for 1 hour. […] Deprotonated ions of the substrate acetyl-CoA (AcCoA) and the reaction product malonyl-CoA (MalCoA) were detected, and the intensity of each signal was used to calculate a conversion rate to malonyl-CoA or succinyl-CoA, i.e., intensity of [MalCoA-H]—/(intensity of [MalCoA-H]-+intensity of [AcCoA.H].). […]

IC50 [nM]	SMILES
5.1	CC(=O)N[C@@H](C)COC1CCC(Oc2nc3c(F)cc(OC4CCC4)cc3n2C)CC1 (some centres unmarked) [Compound I-1]
6.6	CC(=O)N[C@@H](C)COC1CCC(Oc2nc3c(Cl)cc(OC4CC4)cc3n2C)CC1 (some centres unmarked) [Compound I-3]
